This note sets out measurements from patent publication US5336485A, “Method for protecting animals against tacrine induced cytotoxic injury using sterol compounds” (priority 1993, dated 1994).

The assay has as its system liver. Kind of assay: CCl4 induced hepatotoxicity in rats (serum AST/ALT). The format is in vivo, rat. The method, then:
In vivo experiments were performed to determine if alpha-TS administration protects the liver from chemical toxicity. The liver is the target organ for CCl4. CCl4 is a hepatotoxic agent that induces centrilobular liver necrosis through its metabolism to free radicals. Male Sprague-Dawley rats were given an intraperitoneal dose (100 mg/kg) of a tocopherol analog 24 hours prior to a CCl4 challenge (2.9g/kg given by oral garage). Forty eight hours after the challenge, the rats were sacrificed and the levels of aspartate aminotransferase (AST) and alanine aminotransferase (ALT) were measured.
As discussed above, SGOT levels provide a clinical assessment of hepatotoxicity (liver damage).
Succinate analogs were administered to male Sprague-Dawley rats 20 hours prior to a 1 g CCl4 /kg body weight oral challenge and the AST and ALT serum enzyme levels were measured 48 hours after the challenge.
Similar to the experiments were described above, the ionizable congeners were administered to Sprague-Dawley rats by i.p. injection of a 100 mg ionizable congener/kg body weight dose 20 hours prior to oral administration of a 1 g/kg dose of CCl4, and the AST and ALT levels were measured 48 hours after the CCl4 challenge.

Setting [1] is: 50 mg/kg ip, 48 h after 1 g/kg CCl4 (Table 41).

Turning to Retinol acetate [reference compound], under setting [1], the ALT is listed as 5.17 ± 1.32 10^3 units/L and the AST is on record as 13.00 ± 2.11 10^3 units/L. In addition, the “protection against CCl4 hepatotoxicity (in words)” value (rats, serum enzyme levels) is listed as “potentiated CCl4 toxicity”.
